Values quoted from earlier work, collected in publication PMC11516055, “From Static to Dynamic Structures: Improving Binding Affinity Prediction with Graph‐Based Deep Learning” (Advanced Science, 2024).

Target: PTP1B (protein tyrosine phosphatase 1B)
Details: experimental value, thiophene scaffold ligands; cited from earlier work

Row | Compound | pKi
1 | O=C(O)COc1c(C(=O)O)sc(-c2cccc(NC3CCN(S(=O)(=O)Cc4ccccc4)CC3)c2)c1Br [2qbp] | 8.4
2 | CC1(C)CC(Nc2cccc(-c3sc(C(=O)O)c(OCC(=O)O)c3Br)c2)CC(C)(C)C1 [2qbq] | 7.4
3 | O=C(O)COc1c(C(=O)O)sc(-c2cccc(NCc3ccccc3)c2)c1Br [2qbr] | 6.3
